The assay addresses T1, porcine pancreatic kallikrein (Sus scrofa, UniProt P00752).
T1 construct: from tissue
T1 sequence (P00752 8-246): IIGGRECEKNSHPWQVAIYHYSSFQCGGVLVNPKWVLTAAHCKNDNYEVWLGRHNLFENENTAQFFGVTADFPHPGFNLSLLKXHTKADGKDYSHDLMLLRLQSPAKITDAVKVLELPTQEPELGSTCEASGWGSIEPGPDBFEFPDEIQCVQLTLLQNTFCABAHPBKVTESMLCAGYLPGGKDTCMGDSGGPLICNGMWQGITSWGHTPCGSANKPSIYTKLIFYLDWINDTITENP
As to the kind of experiment: Affinity (Ki,app) for plasma proteases, Table 1. It is filed as biochemical. The note with it: read-out: Ki,app.

Turning to aprotinin, the Ki is 0.55 nM.

The values above are taken from patent US7276480B1, “Prevention and reduction of blood loss” (Dyax Corp., priority 2005, dated 2007).
